# Measurements as given in the supplement of paper PMC12350171.
# For some assays here: Most of the hits are listed elsewhere, so they are rarer here than in the full data. Only a part is listed here, and it is no random draw.
# Columns and labels:
# Conditions in all cases: 20 µM
# [1] = test system: Salmonella enterica typhimurium; assay: growth AUC normalised to DMSO control (fraction of control); higher = less growth inhibition, active = hit call of the paper
# Shigella flexneri = assay: as above
# P. vulgatus RND KO = assay: growth AUC normalised to DMSO control (median) (fraction of control); higher = less growth inhibition, active = hit call of the paper
# Outline: (§1)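 Each strain went through two overnight passages under anaerobic conditions before growth in mGAM in 96-well plates, starting at OD578 0.01, with each compound from the approved-drug library at 20 μM and 1% DMSO. Inside an anaerobic incubator, OD578 was recorded every hour for 24 h. Growth curves were cut off at entry into stationary phase, and the area under the curve was calculated by the trapezoidal rule and normalised to vehicle wells on the same plate. Reported values are medians of three biological replicates.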
# P. vulgatus WT = assay: as above
# Outline: as §1
# [2] = test system: S. enterica typhimurium WT; assay: as above
# Outline: as §1
# 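For growth AUC normalised to DMSO control (median) in this document: active when median AUC fell below 0.1.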
smiles,measurement,setting,value
COc1cc(Br)c(C[N+]2(CCOCCC3CCC4CC3C4(C)C)CCOCC2)cc1OC (stereo not given) [Pinaverium bromide],growth AUC normalised to DMSO control,[1],inactive: 1.03
same,growth AUC normalised to DMSO control,Shigella flexneri,inactive: 1.06
same,growth AUC normalised to DMSO control,P. vulgatus RND KO,active: 0.00592
same,growth AUC normalised to DMSO control,P. vulgatus WT,active: 0.0084
same,growth AUC normalised to DMSO control,[2],inactive: 0.996
